Literature values, collected in PMC3385930.

Biological target: Adducin 425-461 (Homo sapiens) (UniProt P35612)

Calmodulin (from UniProt P0DP23)
Kd: 230 nM
